Laboratory results: patent publication US8846929B2, “Substituted-quinoxaline-type piperidine compounds and the uses thereof” (priority 2007, dated 2014)

Sequences of proteins named here, by UniProt entry; tags and fusion partners are left off. A change or cut given only in a name is not applied to a line headed by its entry.
UniProt P41145: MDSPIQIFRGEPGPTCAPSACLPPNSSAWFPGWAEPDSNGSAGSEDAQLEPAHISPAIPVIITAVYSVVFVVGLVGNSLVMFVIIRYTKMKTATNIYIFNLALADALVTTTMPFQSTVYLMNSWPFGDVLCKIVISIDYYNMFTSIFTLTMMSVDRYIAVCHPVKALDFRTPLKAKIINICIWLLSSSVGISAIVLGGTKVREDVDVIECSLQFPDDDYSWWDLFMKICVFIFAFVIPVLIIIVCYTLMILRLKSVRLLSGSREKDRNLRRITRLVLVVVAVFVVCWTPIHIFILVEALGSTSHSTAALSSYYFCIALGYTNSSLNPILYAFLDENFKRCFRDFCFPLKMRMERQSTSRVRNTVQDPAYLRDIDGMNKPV
UniProt P35372: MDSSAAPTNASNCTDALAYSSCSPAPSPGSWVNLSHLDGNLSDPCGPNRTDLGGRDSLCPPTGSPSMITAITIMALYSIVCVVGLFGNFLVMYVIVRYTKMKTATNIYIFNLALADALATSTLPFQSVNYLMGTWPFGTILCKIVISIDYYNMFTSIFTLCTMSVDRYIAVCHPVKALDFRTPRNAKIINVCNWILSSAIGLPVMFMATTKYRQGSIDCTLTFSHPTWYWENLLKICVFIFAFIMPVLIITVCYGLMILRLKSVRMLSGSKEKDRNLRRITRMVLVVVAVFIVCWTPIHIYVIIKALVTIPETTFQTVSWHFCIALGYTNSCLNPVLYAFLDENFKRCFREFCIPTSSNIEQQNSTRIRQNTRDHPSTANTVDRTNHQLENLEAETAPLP
UniProt P41146: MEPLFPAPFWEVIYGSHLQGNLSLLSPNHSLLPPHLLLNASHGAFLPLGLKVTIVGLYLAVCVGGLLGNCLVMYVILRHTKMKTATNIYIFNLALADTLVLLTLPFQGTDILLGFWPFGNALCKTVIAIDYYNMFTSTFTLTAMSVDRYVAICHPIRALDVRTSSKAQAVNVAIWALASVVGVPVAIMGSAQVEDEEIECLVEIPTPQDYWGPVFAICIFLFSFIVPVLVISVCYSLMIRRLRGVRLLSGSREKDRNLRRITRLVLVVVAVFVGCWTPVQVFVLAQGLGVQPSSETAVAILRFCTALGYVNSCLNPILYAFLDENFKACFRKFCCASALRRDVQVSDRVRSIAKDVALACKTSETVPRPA
UniProt P41143: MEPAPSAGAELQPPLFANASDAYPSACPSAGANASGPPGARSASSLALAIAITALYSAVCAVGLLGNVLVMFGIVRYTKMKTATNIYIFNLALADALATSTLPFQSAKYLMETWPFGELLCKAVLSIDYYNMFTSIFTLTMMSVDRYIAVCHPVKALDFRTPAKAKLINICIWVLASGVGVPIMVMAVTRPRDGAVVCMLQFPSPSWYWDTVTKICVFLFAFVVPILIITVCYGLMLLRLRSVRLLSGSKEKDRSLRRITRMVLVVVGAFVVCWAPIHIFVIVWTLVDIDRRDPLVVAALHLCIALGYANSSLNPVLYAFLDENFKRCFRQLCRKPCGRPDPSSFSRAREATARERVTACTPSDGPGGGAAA

Experiments:
kappa opioid receptor [1] = target: T1, kappa opioid receptor (Homo sapiens (Human), UniProt P41145); assay: In vitro kappa-opioid receptor binding assay ([3H]-U69,593 displacement); details: read-out: Ki [Average ± Std Deviation] Opioid Receptor Kappa; membranes from recombinant HEK-293 cells
μ-opioid receptor [2] = target: T2, μ-opioid receptor (Homo sapiens (Human), UniProt P35372); assay: In vitro mu-opioid receptor binding assay ([3H]-diprenorphine displacement); details: read-out: Ki [Average ± Std Deviation] Opioid Receptor Mu
μ-opioid receptor [3] = target: T2, μ-opioid receptor; assay: In vitro mu-opioid receptor [35S]GTPγS functional assay; details: mean ± SEM; for pEC50: read-out: GTPγS Opioid Receptor Mu EC50
[4] = target: T3, human opioid receptor-like (ORL-1) (Homo sapiens (Human), UniProt P41146); assay: In vitro ORL-1 receptor binding assay ([3H]-nociceptin displacement); details: read-out: Ki [Average ± Std Deviation] ORL-1; membranes from recombinant HEK-293 cells
[5] = target: T3, human opioid receptor-like (ORL-1); assay: In vitro ORL-1 receptor [35S]GTPγS functional assay; type: biochemical; details: mean ± SEM; for pEC50: read-out: GTPγS ORL-1 EC50
delta opioid receptor = delta opioid receptor (Homo sapiens (Human), UniProt P41143); assay: In vitro delta-opioid receptor binding assay ([3H]-Naltrindole displacement); details: read-out: Ki [Average ± Std Deviation] Opioid Receptor Delta; recombinant receptor expressed in CHO-K1 cells
kappa opioid receptor [6] = target: T1, kappa opioid receptor; assay: In vitro kappa-opioid receptor [35S]GTPγS functional assay; type: biochemical; details: mean ± SEM; for pEC50: read-out: GTPγS Opioid Receptor Kappa EC50

| Substance | pKi (kappa opioid receptor [1]) | pKi (μ-opioid receptor [2]) | GTPγS Opioid Receptor Mu Emax (μ-opioid receptor [3]) [%] | pEC50 (μ-opioid receptor [3]) | pKi [4] | GTPγS ORL-1 Emax [5] [%] | pEC50 [5] | pKi (delta opioid receptor) | GTPγS Opioid Receptor Kappa Emax (kappa opioid receptor [6]) [%] | pEC50 (kappa opioid receptor [6]) |
| --- | --- | --- | --- | --- | --- | --- | --- | --- | --- | --- |
| 1-(2-(4-((endo)-8-cyclooctyl-8-azabicyclo[3.2.1]octan-3-yl)-3-oxo-3,4-dihydroquinoxalin-2-ylamino)ethyl)piperidine-4-carboxylic acid | 6.25 | 6.15 | 4.2 | 5.97 | 7.46 | 38 | 6.47 | < 4.70 | 9 | 5.65 |
| 1-(4-((endo)-8-cyclooctyl-8-azabicyclo[3.2.1]octan-3-yl)-3-oxo-3,4-dihydroquinoxalin-2-yl)-4-hydroxypiperidine-4-carboxylic acid | 6.06 | 6.14 | 11.5 | 5.31 | 7.79 | 36.5 |  | 4.79 | 3.3 | 5.48 |
| 2-(2-(4-((endo)-8-cyclooctyl-8-azabicyclo[3.2.1]octan-3-yl)-3-oxo-3,4-dihydroquinoxalin-2-ylamino)ethylamino)-3-hydroxypropanoic acid | 6.06 | 5.60 |  |  | 7.97 | 53.7 ± 2.3 | 7.07 | < 4.70 | 9.7 ± 1.8 | 5.32 |
| 2-(2-(4-((endo)-8-cyclooctyl-8-azabicyclo[3.2.1]octan-3-yl)-3-oxo-3,4-dihydroquinoxalin-2-ylamino)ethylamino)acetic acid | 6.15 | 5.49 |  |  | 7.69 | 83 | 6.45 | < 4.00 | 7.7 ± 0.3 | 5.34 |
| 2-(4-((endo)-8-cyclooctyl-8-azabicyclo[3.2.1]octan-3-yl)-3-oxo-3 ,4-dihydroquinoxaline-2-carboxamido)acetic acid | 6.60 | 6.31 | 12.0 ± 0.8 | 5.87 | 7.80 | 102.7 ± 2.7 | 6.68 | 4.75 |  | 5.36 |
| 2-(4-((endo)-8-cyclooctyl-8-azabicyclo[3.2.1]octan-3-yl)-3-oxo-3,4-dihydroquinoxaline-2-carboxamido)-3-(1H-imidazol-4-yl)propanoic acid | 6.89 | 6.43 | 20.0 ± 0.6 | 4.44 | 7.47 | 53.3 ± 0.6 | 6.44 | 4.95 | 63 ± 11 | 4.33 |
| 2-(4-((endo)-8-cyclooctyl-8-azabicyclo[3.2.1]octan-3-yl)-3-oxo-3,4-dihydroquinoxaline-2-carboxamido)-3-phenylpropanoic acid | 7.30 |  | 8.9 ± 0.5 |  | 7.94 | 80.0 ± 1.7 | 6.70 | 5.76 | 13.0 ± 2.3 | 5.43 |
| 2-(5-(4-((endo)-8-cyclooctyl-8-azabicyclo[3.2.1]octan-3-yl)-3-oxo-3,4-dihydroquinoxalin-2-yl)hexahydropyrrolo[3,4-c]pyrrol-2(1H)-yl)acetic acid | 6.87 | 5.65 |  |  | 7.80 | 81 ± 3 | 6.40 | < 4.70 | 0.3 | < 4.70 |
| 2-(((S)-1-(4-((endo)-8-cyclooctyl-8-azabicyclo[3.2.1]octan-3-yl)-3-oxo-3,4-dihydroquinoxalin-2-yl)pyrrolidin-3-yl)(methyl)amino)acetic acid | 6.65 | 5.05 |  |  | 7.67 | 73.3 ± 3.7 | 6.21 | 4.14 | 8.0 ± 1 | < 4.70 |
| 2-((S)-1-(4-((endo)-8-cyclooctyl-8-azabicyclo[3.2.1]octan-3-yl)-3-oxo-3,4-dihydroquinoxalin-2-yl)pyrrolidin-3-ylamino)acetic acid | 6.35 | 4.77 |  |  | 7.52 | 59 ± 2 | 6.33 | < 4.70 | 4.3 ± 1.3 | < 4.70 |
| 3-((R)-3-aminopyrrolidin-1-yl)-1-((endo)-8-cyclooctyl-8-azabicyclo[3.2.1]octan-3-yl)quinoxalin-2(1H)-one | 7.83 | 6.23 | 9.7 ± 0.7 | 5.31 | 8.80 | 105.7 ± 5.0 | 7.77 | 4.85 | 15.3 ± 4.1 | 4.48 |
| 3-amino-1-(4-((endo)-8-cyclooctyl-8-azabicyclo[3.2.1]octan-3-yl)-3-oxo-3,4-dihydroquinoxalin-2-yl)pyrrolidine-3-carboxylic acid | 6.37 | 5.55 |  |  | 7.97 | 83.3 ± 5.4 | 6.90 | < 4.70 | 6.3 ± 0.9 | 5.49 |
| 4-((endo)-8-cyclooctyl-8-azabicyclo[3.2.1]octan-3-yl)-N-hydroxy-3-oxo-3,4-dihydroquinoxaline-2-carboxamide | 6.32 |  | 12.5 ± 1.4 |  | 8.57 | 127.0 ± 5.3 | 7.50 | < 4.00 | 17 | 5.61 |
| 4-((exo)-8-cyclooctyl-8-azabicyclo[3.2.1]octan-3-yl)-N-(6-methoxypyridin-3-yl)-3-oxo-3,4-dihydroquinoxaline-2-carboxamide | 6.13 | 5.57 |  |  | 6.89 | 110.5 ± 6.5 | 5.63 | 4.86 | 9.0 ± 1.2 | 5.42 |
| 4-acetamido-1-(4-((endo)-8-cyclooctyl-8-azabicyclo[3.2.1]octan-3-yl)-3-oxo-3,4-dihydroquinoxalin-2-yl)piperidine-4-carboxylic acid | 6.59 | 5.41 |  |  | 6.80 | 46.7 ± 1.9 | 5.75 | < 4.70 | 0 | < 4.70 |
| 4-amino-1-(4-((endo)-8-cyclooctyl-8-azabicyclo[3.2.1]octan-3-yl)-3-oxo-3,4-dihydroquinoxalin-2-yl)piperidine-4-carboxylic acid | 6.65 | 5.21 |  |  | 7.95 | 34.5 ± 1.6 | 7.03 | < 4.70 | 13 ± 2.1 | 5.33 |
| (2R)-2-(4-((endo)-8-cyclooctyl-8-azabicyclo[3.2.1]octan-3-yl)-3-oxo-3,4-dihydroquinoxalin-2-ylamino)-3-hydroxypropanoic acid |  | 6.11 | 93 | 5.97 | 7.62 | 35.3 ± 2.3 | 7.36 | 4.24 | 18 ± 2 |  |
| (5)-2-(4-((endo)-8-cyclooctyl-8-azabicyclo[3.2.1]octan-3-yl)-3-oxo-3,4-dihydroquinoxalin-2-ylamino)-2-phenylacetic acid | 6.46 | 5.89 |  |  | 7.40 | 60 | 6.02 | < 4.70 | 6.0 ± 1.5 | 5.71 |
| endo-4-(8-adamantan-1-yl-8-aza-bicyclo[3.2.1]oct-3-yl)-3-oxo-3,4-dihydro-quinoxaline-2-carboxylic acid hydrochloride |  |  | 23 ± 1 |  | 7.92 | 59.7 ± 0.3 | 7.39 |  |  |  |
| endo-8-aza-bicyclo[3.2.1]oct-3-yl]-3-oxo-3,4-dihydro-quinoxaline-2-carboxylic acid | 5.84 | 6.17 | 6.6 ± 0.7 | 6.40 | 8.39 | 80 ± 2.2 | 7.47 | < 4.70 |  |  |
| ethyl 4-((endo)-8-cyclooctyl-8-azabicyclo[3.2.1]octan-3-yl)-3-oxo-3,4-dihydroquinoxaline-2-carboxylate | 7.18 | 6.34 | 3.0 ± 0.4 | 6.19 | 7.65 | 58.3 ± 1.6 | 6.68 |  | 1.0 ± 2.0 | 3.18 |

pEC50, pKi: −log10 of the molar value.
